Bioassay records (PubChem)
HCMV NEC inh – cytomegalovirus nuclear egress complex inhibition; HTRF UL50-UL53 interaction, normalized percent inhibition; inhibition, % (concentration not given with the values); 190,000 tested, 0.15% active; AID 1918969; in the data active = inhibition above about 27%, passing the limit was not always enough
GIV Gai3 FP – inhibitors of GIV GBA-motif binding to rat Galpha-i3; P08753; Galpha-i3/FITC-GIV peptide fluorescence polarization, 90 min; active compounds read low; scaled: aluminum fluoride 0%, vehicle 100%; percent of control (FP), % (concentration not given with the values); 210,000 compounds, 0.42% hits; AID 1224905;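 active means replicate mean at 85% of control or lower, very high polarization wells dropped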;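 further: wells of about 15 µL received 100 nL stock; the first replicate is given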
* = called active by the depositor; . = no result. This excerpt belongs to a sample that is enriched for hits.

SMILES	HCMV NEC inh	GIV Gai3 FP
CN(C)c1ccc(/C=C2\C(=O)NC(=O)N(C3CCCC3)C2=O)o1	.	-42*
Cn1nc(C(C)(C)C)cc1NC(=O)Nc1ccc(Cl)cc1	-10	.
Cn1nccc1NC(=O)Nc1ccc(Cl)cc1	66*	102
CCOC(=O)C1(C#N)C(=O)C(C#N)=C2CCCCC2C1c1ccccc1 (stereo not drawn)	-68	-31*
CCOC(=O)C1=C(C)NC2=C(C(=O)CCC2)C1c1ccccc1 (stereo not drawn)	-28	100
COC(=O)c1ccc2c(c1)NC(=O)C1CCCN21 (stereo not drawn)	-5	.
O=C(O)c1ccc2c(c1)NC(=O)C1CCCN21 (stereo not drawn)	79*	.
O=C(NCc1ccco1)/C(=C/c1cccc([N+](=O)[O-])c1)NC(=O)c1ccc(Br)cc1	.	112
Cn1c(=O)c(N2CCCCC2)c2c3c(cccc31)C(=O)c1ccccc1-2	.	-32*
Cn1c(=O)c(Nc2ccccc2)c2c3c(cccc31)C(=O)c1ccccc1-2	.	116
C=Cc1c(C)c2cc3[nH]c(cc4nc(cc5nc(cc1[nH]2)C(C)=C5CCC(=O)O)C(CCC(=O)O)=C4C)c(C)c3C=C	86*	106
O=C(O)CCc1nc2ccc(C(=O)O)cc2[nH]1	.	100
CN(C)c1ccc(/C=C2/C(=O)c3ccc(C(=O)O)cc3C2=O)cc1	-77	-73*
CC(C)(C)C1(C)OC(=O)C(=Cc2ccc(C(=O)O)cc2)C(=O)O1 (stereo not drawn)	-4	93
NC(=O)c1ccc2c(c1)CCCN2C(=O)c1ccc(F)cc1	.	103
Cc1c(Cl)cccc1Nc1c(C(=O)N2CCOCC2)cnc2ccccc12	-14	99
COc1cc(OC)c(Nc2c(C(=O)N3CCOCC3)cnc3ccccc23)cc1Cl	-28	85*
N=c1oc2c3c4c(cc2cc1C(=O)Nc1ccccc1)CCCN4CCC3	-4	-62*
N#Cc1ccc(NC(=O)c2ccc(Br)cc2)cc1	-30	.
CCOC(=O)c1ccc(NC(=O)c2cc3cc(Cl)ccc3oc2=N)cc1	-16	100

Three entries from above, sorted by the value under GIV Gai3 FP, smallest number first.
SMILES	GIV Gai3 FP
N=c1oc2c3c4c(cc2cc1C(=O)Nc1ccccc1)CCCN4CCC3	-62*
CCOC(=O)C1(C#N)C(=O)C(C#N)=C2CCCCC2C1c1ccccc1 (stereo not drawn)	-31*
CC(C)(C)C1(C)OC(=O)C(=Cc2ccc(C(=O)O)cc2)C(=O)O1 (stereo not drawn)	93

Further entries.
SMILES	HCMV NEC inh	GIV Gai3 FP
N#Cc1ccc(NC(=O)c2cc3cc4c5c(c3oc2=N)CCCN5CCC4)cc1	.	-14*
CCOC(=O)c1ccc(NC(=O)c2cc3cc4c5c(c3oc2=N)CCCN5CCC4)cc1	-9	-14*
Cc1ccc(NC(=O)c2cc3ccccc3oc2=N)cc1	.	104
COc1ccccc1C(=O)Nc1ccc2nc(N3CCC(c4ccccc4C)C3)cc(C(=O)O)c2c1 (stereo not drawn)	-61	113
Cc1[nH]c2ccccc2c1-c1ncc(C(F)(F)F)cc1Cl	-15	107
Cc1ccc(N(CC#N)C(=O)Cn2cc[n+](C)c2)cc1	4	.
COC(=O)c1ccc(COC(=O)Cn2c(C)csc2=O)o1	-11	.
COc1ccc(OC)c(S(=O)(=O)Nc2cnc(N3CCCC3)c(C(=O)O)c2)c1	-27	94
Cc1cc(C)c(S(=O)(=O)Nc2cnc(N3CCCC3)c(C(=O)O)c2)cc1C	-21	72*
CCS(=O)(=O)N1N=C(c2ccccc2)CC1c1cc2cc3c(cc2nc1Cl)OCCO3 (stereo not drawn)	.	-53*
CC(=O)N1N=C(c2ccccc2)CC1c1cc2cc3c(cc2nc1Cl)OCO3 (stereo not drawn)	-23	105
COc1cc(Br)c(CC2C(=O)N(C)c3ccccc32)cc1OC (stereo not drawn)	-4	106
CCn1c(O)c(/C=N/c2nc3ccccc3[nH]2)sc1=S	-3	.
CCn1c(O)c(C=Nc2cccc(O)c2)sc1=S	-12	66*
O=C1S/C(=C\c2ccc(N3CCOCC3)o2)C(=O)N1c1ccccc1	.	-42*
Cc1ccc(/C=C2\SC(=O)N(c3ccccc3)C2=O)o1	-5	104
CCc1oc2cc(OC(C)=O)ccc2c(=O)c1-c1ccc2c(c1)OCCO2	-14	105
CC(=O)N1CCc2c(sc(NC(=O)c3ccc(Br)s3)c2-c2nc3ccccc3s2)C1	-22	108
CC(C)N1CCc2c(sc(NC(=O)c3ccc(F)cc3)c2-c2nc3ccccc3s2)C1	.	-3.2*
CCN1CCc2c(sc(NC(=O)CCc3ccccc3)c2-c2nc3ccccc3s2)C1	.	121
CCOC(=O)c1c(NC(=O)c2ccc(Cl)cc2)sc2c1CCN(C(C)C)C2	.	186
CC(=O)Nc1sc2c(c1-c1nc3ccccc3s1)CCN(Cc1ccccc1)C2	.	-3.2*
CN1CCc2c(sc(NC(=O)CSc3ccccc3)c2-c2nc3ccccc3s2)C1	.	188
COC(=O)c1c(NC(=O)c2ccc(Br)cc2)sc2c1CCN(C(C)C)C2	.	-26*
CC(C)Oc1ccc(C(=O)Nc2sc3c(c2-c2nc4ccccc4s2)CCN(C)C3)cc1	.	-3.2*
Cn1nc(C(=O)NCc2ccc3c(c2)OCO3)c2c1-c1cc(Cl)ccc1SC2	-12	105
O=C(CC1CCN(S(=O)(=O)c2ccccc2)CC1)NCCCN1CCOCC1	-13	96
COC(=O)c1cnc(N(C)Cc2ccccc2)c2ccccc12	-2	99
CC12CCC(C(=O)N3CCc4ccccc4C3)(OC1=O)C2(C)C (stereo not drawn)	-8	.
COCCNC(=O)c1cc2occc2c(Nc2ccccc2)n1	-22	105
CCC(=O)Nc1sc2c(c1-c1nc3ccccc3s1)CCN(C(C)=O)C2	-28	104
CCOc1ccc(C(=O)Nc2sc3c(c2-c2nc4ccccc4s2)CCN(CC)C3)cc1	.	-3.2*
CCN(CC)CCn1c(C)c(C)c2c1ncn1nc(Cc3ccccc3)nc21	7	98
CCN1/C(=C/C2=CC(=O)CC(C)(C)C2)Sc2ccccc21	.	-24*
CCN1C(=O)CCSc2ccccc21	-41	104
CCN1/C(=C\C=C2C(=O)OC(C)(C)OC2=O)Sc2ccccc21	-25	-34*
CCN1/C(=C\C(=O)C2CC2)Sc2ccccc21	-27	100
Cc1c(CC(Cl)(Cl)Cl)c2c(n1Cc1ccccc1)CC(C)(C)CC2=O	.	107
CCC(Sc1nc2ccccc2c(=O)n1CCCC(=O)NCc1ccco1)C(=O)Nc1ccc2c(c1)OCO2 (stereo not drawn)	.	107
CC(C)(CO)NCc1ccc(-c2ccc(Cl)cc2)o1	-19	101

Part of the list above, with two lines to a compound:
Screens in order – HCMV NEC inh | GIV Gai3 FP
CC12CCC(C(=O)N3CCc4ccccc4C3)(OC1=O)C2(C)C (stereo not drawn)
→ -8 | .
COCCNC(=O)c1cc2occc2c(Nc2ccccc2)n1
→ -22 | 105
CC(C)Oc1ccc(C(=O)Nc2sc3c(c2-c2nc4ccccc4s2)CCN(C)C3)cc1
→ . | -3.2*
CCN1/C(=C\C=C2C(=O)OC(C)(C)OC2=O)Sc2ccccc21
→ -25 | -34*

(cont.)
SMILES	HCMV NEC inh	GIV Gai3 FP
O=C(NCCN1CCOCC1)C1CCN(c2cnc(N3CCSCC3)nc2)CC1	.	101
Cc1c(-c2cccc(Cl)c2)nc2ccccc2c1C(=O)OCC(N)=O	0	.
COc1cccc(/C=N/NC(=O)c2oc3nc(-c4ccccc4)cc(-c4ccco4)c3c2N)c1	-32	-54*
NNC(=O)c1oc2nc(-c3ccccc3)cc(-c3ccccc3)c2c1N	-68	105
OCC1OC(Oc2ccccc2)C(O)C(O)C1O (stereo not drawn)	-2	102
OC[C@H]1OC([S-])[C@H](O)[C@@H](O)[C@@H]1O.[Au+] (stereo partly drawn)	58*	.
CCN(CC)c1ccc2cc(-c3nnc(Nc4ccc(C)cc4)s3)c(=O)oc2c1	.	-70*
CCOC(=O)c1ccc(Nc2nnc(-c3cc4ccc(N(CC)CC)cc4oc3=O)s2)cc1	-10	229
Cc1nc(=S)sn1-c1nc(Nc2ccccc2)nc(Nc2ccccc2)n1	-27	106
CN(C)S(=O)(=O)c1ccc(C(=O)Nc2c3c(nn2-c2ccc(Cl)cc2)CS(=O)(=O)C3)cc1	.	104
COC(=O)C1=C(C)N(Cc2ccccc2)C(=O)/C1=C\c1cccc(Cl)c1	.	51*
COC(=O)C1=C(C)N(Cc2ccccc2)C(=O)/C1=C\c1cccc(O)c1	-5	108
